# Laboratory results reported in PubChem BioAssay AID652054 (National Center for Advancing Translational Sciences (NCATS), 2013).
# By UniProt entry, the sequences of proteins in these tests, tags left out.
# UniProt P35462, whole entry, looked up: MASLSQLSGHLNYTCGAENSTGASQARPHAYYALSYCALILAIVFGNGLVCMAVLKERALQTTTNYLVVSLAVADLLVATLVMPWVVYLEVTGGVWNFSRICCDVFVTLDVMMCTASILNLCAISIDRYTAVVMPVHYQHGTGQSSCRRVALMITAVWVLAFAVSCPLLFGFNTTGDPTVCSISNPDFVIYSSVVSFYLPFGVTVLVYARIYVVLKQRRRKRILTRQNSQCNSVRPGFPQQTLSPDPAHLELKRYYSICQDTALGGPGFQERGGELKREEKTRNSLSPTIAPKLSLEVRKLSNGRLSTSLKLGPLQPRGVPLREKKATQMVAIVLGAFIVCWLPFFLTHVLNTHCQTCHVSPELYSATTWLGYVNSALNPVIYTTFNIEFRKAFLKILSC
# The list shows a part of the results, in another mix than the full data. Results filed as inconclusive are left out. Active and inactive are the calls of the source. Rule as the data show it: active = max response below about -50%; inconclusive = no clear call, values can overlap the other calls; inactive = above that.
# Target: D(3) dopamine receptor (Homo sapiens) (UniProt P35462)
# Test: qHTS of D3 Dopamine Receptor Antagonist: qHTS
# Conditions: D3R cells, DiscoveRx beta-arrestin luminescence, antagonist mode; active compounds read low
# Description: D3 DARs represent a very important target for the treatment of several neuropsychiatric disorders. Indeed, one of the most promising therapeutic applications for the D3 DAR is in the area of addiction and related disorders. […] These findings have been observed with a number of addictive substances including cocaine, amphetamine, nicotine, and alcohol. […] Antagonism of the D3 DAR may also be therapeutic in the treatment of schizophrenia or psychosis. […] Since the D3 DAR is expressed in areas of the CNS associated with the control of mood and emotion, it has been hypothesized that selective antagonism of the D3 DAR may be effective in treating psychosis without inducing the motor side effects typically seen with D2 DAR antagonists.
# This part of the project aims to discover novel antagonist.
# NIH Chemical Genomics Center [NCGC]
# NIH Molecular Libraries Probe Centers Network [MLPCN]
# Assay Submitter (PI): David Sibley, NINDS
# Freshly passaged cells are plated in 1536 well white, solid bottom plates at a density of 1500 cells/well in 3microl of complete media. After an overnight incubation at 37 degrees C in 5% CO2, cells are loaded with 23nl of test compound from the compound library (as well as dopamine controls) using a 1536 pintool and incubated at 37 degrees C for 90 minutes. Two microliters of DiscoveRx reagent is then added to all cells, and they are incubated for an additional 30 - 60 minutes at room temperature. Following incubation, luminescence is measured on a ViewLux CCD-based luminometer reader using a 20 sec exposure time.
# % is scaled to controls: 0 for no effect and ±100 for the full control effect.
row,SMILES,"max response, negative = inhibition"
1,CCOC(=O)Nc1cccc([As](=O)(O)O)c1,inactive: 2.32%
2,O=P(Nc1ccccn1)(c1cccc2ccccc12)c1cccc2ccccc12,inactive: 1.01%
3,Cc1cc(SC(NC=O)C(Cl)(Cl)Cl)ncn1 (stereo unspecified),inactive: -9.09%
4,O=[N+]([O-])c1ccc(Nc2ccc(Oc3ccc([N+](=O)[O-])cc3[N+](=O)[O-])cc2)c([N+](=O)[O-])c1,inactive: 9.26%
5,CCOC(=O)Nc1ccc([As](=O)(O)O)c(O)c1,inactive: 2.45%
6,O=C(O)C(O)c1ccc(N(CCCl)CCCl)cc1 (stereo unspecified),inactive: 21.7%
7,CC1CCNP(=O)(N(CCCl)CCCl)O1 (stereo unspecified),inactive: -13.4%
8,COP(=O)(OC)N1CC1c1ccccc1 (stereo unspecified),inactive: -13.6%
9,Cc1cc(SC(NC(=O)c2ccccc2)C(Cl)(Cl)Cl)nc(C(C)C)n1 (stereo unspecified),inactive: -4.26%
10,CCCCOc1ccc(C(=O)NCC2(N3CCCCC3)CCCCC2)cc1OC,inactive: -28.3%
11,CSc1ccc(Nc2c([N+](=O)[O-])cc([N+](=O)[O-])cc2[N+](=O)[O-])cc1,active: -53.7%
12,O=C(OC1CN2CCC1CC2)c1cccc([N+](=O)[O-])c1 (stereo unspecified),inactive: -16.3%
13,CCOC(=O)c1ccc(NC(=O)C(C)(CCl)SC)cc1 (stereo unspecified),inactive: -18.3%
14,CCC(C)N(CC(C)C)C(=S)SC(NC(C)=O)C(Cl)(Cl)Cl (stereo unspecified),inactive: -25.6%
15,COC(=O)C1(C)COP(=O)(N2CCCC2)OC1 (stereo unspecified),inactive: -21.9%
16,COP1(=S)c2c(C)nn(CCC#N)c2N=C(c2ccc(F)cc2)N1C (stereo unspecified),inactive: -26.6%
17,O=C(O)C(=O)c1ccc(N(CCCl)CCCl)cc1,inactive: -23.2%
18,O=C(Nc1ccncc1[N+](=O)[O-])c1ccc([N+](=O)[O-])cc1[N+](=O)[O-],inactive: -4%
19,O=C(COc1ccccc1)OC1CN2CCC1CC2 (stereo unspecified),inactive: 30.4%
20,O=[N+]([O-])c1cc(Oc2ccc([N+](=O)[O-])cc2C(F)(F)F)cc([N+](=O)[O-])c1,inactive: 0%
21,COc1ccc(N/C(=N/P(=O)(N2CCOCC2)N2CCOCC2)N2CCOCC2)cc1,inactive: -5.03%
22,Cc1c2c(nc3ccccc13)SC(C(Cl)Cl)C2 (stereo unspecified),inactive: -1.19%
23,Cc1cc(=O)[nH]c(N[N+](=O)[O-])n1,inactive: 2.11%
24,O=C(OC1CN2CCC1CC2)C12CC3CC(CC(C3)C1)C2 (stereo unspecified),active: -51.8%
25,O=P1(N(CCCl)CCCl)OCCCN1CCCl (stereo unspecified),inactive: -19.6%
26,O=P1(N(CCCl)CCCl)Nc2ccccc2N1,inactive: -0.561%

row,SMILES,"max response, negative = inhibition"
1,COc1cc(I)ccc1[As](=O)(O)O,inactive: -2.05%
2,COc1ccc2nc(NP(=O)(c3ccccc3)c3ccccc3)sc2c1,inactive: 6.57%
3,ClCCSc1nnc(-c2cccnc2)o1,inactive: 9.77%
4,COC(=O)C1(C)COP(=O)(N2CCCCCC2)OC1 (stereo unspecified),inactive: 0.323%
5,CC(C)c1ccc(OP(=O)(Nc2ccccn2)Oc2ccccc2F)cc1 (stereo unspecified),inactive: -12.5%
6,CC(C)NC(=O)NP(=O)(Oc1ccccc1)Oc1ccccc1,inactive: 5.33%
7,O=C(OC1CN2CCC1CC2)c1cccc2[nH]cnc12 (stereo unspecified),inactive: 11%
8,CCN(CC)C(=S)SC(NC=O)C(Cl)(Cl)Cl (stereo unspecified),inactive: 3.3%
9,O=[N+]([O-])c1ccc(-c2cc([N+](=O)[O-])c(O)c([N+](=O)[O-])c2)cc1,inactive: 0%
10,COc1cc(C(=O)NCC2(N3CCOCC3)CCCCC2)ccc1OCC(C)C,inactive: -6.03%
11,C[As](=O)(O)c1cccc(C(=O)O)c1,inactive: -6.35%
12,O=[As](O)(c1ccc(O)cc1)c1ccccc1O,inactive: 1.1%
13,Cc1ccc(OP(=O)(Nc2ccc([N+](=O)[O-])cn2)Oc2ccc(C)cc2)cc1,inactive: 9.83%
14,Cc1ccc2nc3c(c(C)c2c1)CC(C(Cl)Cl)S3 (stereo unspecified),inactive: 13.1%
15,NC(=O)Nc1ccc([As](=O)(O)O)cc1,inactive: -22.4%
16,CN(C(=O)Cc1ccccc1)[C@@H]1CC[C@]2(CCCO2)C[C@H]1N1CCCC1,inactive: 9.1%
17,CCOP1(=S)c2c(C)nn(CCC#N)c2N=C(c2ccc(F)cc2)N1C (stereo unspecified),inactive: 3.95%
18,N#CCCN(C(=O)COC(=O)C(O)(c1ccccc1)c1ccccc1)c1ccc(F)cc1,inactive: -13.7%
19,CN(C(=O)Cc1ccc(Cl)c(Cl)c1)[C@H]1CC[C@@]2(CCCO2)C[C@@H]1N1CCCC1,inactive: -6.96%
20,O=[N+]([O-])c1ccc2c(c1)nnn2O,inactive: -7.48%
21,CN(C)C(=O)c1cc([N+](=O)[O-])cc2c1-c1c(cc([N+](=O)[O-])cc1[N+](=O)[O-])C2=O,active: -106%
22,O=P(Nc1nccs1)(Oc1ccccc1)Oc1ccccc1,inactive: -28.5%
23,O=P(Nc1nccs1)(c1ccccc1)c1nc2ccccc2s1 (stereo unspecified),active: -92.1%
24,CCOP1(=S)c2c(C)nn(CCC#N)c2N=C(c2ccccc2F)N1C (stereo unspecified),inactive: -20.4%
25,CS(=O)(=O)c1cc([N+](=O)[O-])c2no[n+]([O-])c2c1,inactive: -10.6%
26,Nc1ccccc1[As](=O)(O)c1ccccc1,inactive: 1.55%

row,SMILES,"max response, negative = inhibition"
1,O=C(O)COc1ccc([As](=O)(O)O)cc1[N+](=O)[O-],inactive: 1.78%
2,Nc1cccc2c([As](=O)(O)O)cccc12,inactive: -0.981%
3,Cc1ccc(NCCc2c([N+](=O)[O-])cc([N+](=O)[O-])cc2[N+](=O)[O-])cc1,inactive: -3.01%
4,CCCOP(=S)(Nc1nc(N)cc(=O)[nH]1)OCCC,inactive: -3.85%
5,CCOP(=O)(Nc1cccc2ccccc12)OCC,inactive: -14.8%
6,COc1cc(C2NCCC3(OCCO3)C2(C)C)cc(OC)c1OC (stereo unspecified),active: -61.3%
7,O=C(OC1CN2CCC1CC2)c1ccc(Cl)cc1 (stereo unspecified),inactive: 15.1%
8,CS(=O)(=O)c1ccc(Cl)c(NC(=O)COC(=O)C(O)(c2ccccc2)c2ccccc2)c1,inactive: -11.7%
9,O=[As](O)(O)c1cccnc1,inactive: 4.42%
10,COc1cc(C(=O)NCC2(N3CCOCC3)CCCCC2)cc(Cl)c1OC(C)C,inactive: -5.04%
11,Cc1cccc(OCC(=O)OC2CN3CCC2CC3)c1 (stereo unspecified),inactive: -16.1%
12,O=[As](O)(c1cccc(O)c1)c1cccc(O)c1,inactive: 4.53%
13,COc1ccccc1CNC(=O)COC(=O)C(O)(c1ccccc1)c1ccccc1,inactive: 2%
14,CC(C)/C=N\N=C(\N)N[N+](=O)[O-],inactive: 6.37%
15,CN(C(=O)Cc1ccc(Cl)c(Cl)c1)[C@@H]1CCCC[C@H]1N1CCCC1,inactive: 0%
16,CC1(CBr)Cn2c(nc3ccccc3c2=O)S1 (stereo unspecified),inactive: -21.9%
17,CCOP(=O)(NC(=NC(C)c1ccccc1)NC(C)c1ccccc1)OCC (stereo unspecified),inactive: -0.0553%
18,O=P1(Nc2ccccn2)COc2ccccc2OC1,inactive: -6.64%
19,CCC1=CC2Cc3nc4ccc(Cl)cc4c(N)c3C(C1)C2 (stereo unspecified),inactive: 17.2%
20,CCOP(=O)(Nc1ccc(C)cn1)OCC,inactive: -23.4%
21,CC(C)(C)C(=O)NC(Sc1ncccn1)C(Cl)(Cl)Cl (stereo unspecified),inactive: -0.863%
22,O=P1(N(CCCl)CCCl)NCCC(C(F)(F)F)O1 (stereo unspecified),inactive: 10.4%
23,Clc1n[nH]nc1-c1nn[nH][15n]1,inactive: -15.2%
24,Cc1ccc(S(=O)(=O)N(CCCN)CCCc2c(C)nc(N)[nH]c2=O)cc1,inactive: 0%
25,O=P1(Nc2ncccn2)COc2ccccc2OC1,inactive: 14.4%
26,Nc1cccc([As](=O)(O)c2ccccc2)c1,inactive: 1.21%

row,SMILES,"max response, negative = inhibition"
1,O=[As](O)(c1cccs1)c1cccs1,inactive: 36.7%
2,Cc1ccc(OCC(=O)OC2CN3CCC2CC3)cc1 (stereo unspecified),inactive: -0.0233%
3,O=P1(Nc2ccc(Br)cn2)COc2ccccc2OC1,inactive: 0.129%
4,NS(=O)(=O)c1cccc(NC(=O)COC(=O)C(O)(c2ccccc2)c2ccccc2)c1,inactive: 5.96%
5,CC1CCC(C(C)C)C(OP(=O)(Nc2ccccn2)c2ccccc2)C1 (stereo unspecified),inactive: 12%
6,Cc1ccc(C(=O)OC2CN3CCC2CC3)cc1 (stereo unspecified),inactive: 16.2%
7,Cc1nn(-c2ccccc2)c2c1P(=O)(N1CCOCC1)N(C)C(c1ccccc1)=N2 (stereo unspecified),inactive: 16.6%
8,CN(C)C1(CNC(=O)c2ccc(S(C)(=O)=O)cc2)CCCCC1,inactive: -3.63%
9,CCCC1OP(=O)(Nc2ccccc2)OCC1CC (stereo unspecified),inactive: 5.25%
10,O=C(/C=C/c1ccccc1)OC1CN2CCC1CC2 (stereo unspecified),inactive: 12.1%
11,O=[As](O)(c1ccccc1)c1ccc(O)cc1,inactive: 10%
12,O=[N+]([O-])c1ccc(O)c(/C=N/Nc2ccc([N+](=O)[O-])cc2[N+](=O)[O-])c1,inactive: 17.6%
13,O=[N+]([O-])c1ncn(CCn2cnc([N+](=O)[O-])n2)n1,inactive: -8.84%
14,CC(=O)NC(SC(=S)N(C)C)C(Cl)(Cl)Cl (stereo unspecified),inactive: -4.89%
15,O=C(OC1CN2CCC1CC2)c1cccc(Cl)c1 (stereo unspecified),inactive: -6.92%
16,C(Cc1nn[nH]n1)Cc1nn[nH]n1,inactive: 13.4%
17,Nc1ccc([As](=O)(O)c2ccc([N+](=O)[O-])cc2)cc1,inactive: 2.14%
18,O=P(Nc1ccccn1)(c1ccc(Br)cc1)c1ccc(Br)cc1,inactive: 13.9%
19,CN(C)C1(CNC(=O)c2ccc(Cl)c(S(N)(=O)=O)c2)CCCCC1,inactive: 3.1%
20,COc1ccc(N)c([N+](=O)[O-])c1[N+](=O)[O-],inactive: -25.6%
21,Nc1ccc(CCCCOc2ccccc2)cc1,active: -78.8%
22,C[C@H]1OP(=O)(Oc2ccccc2)[C@H](O)[C@H](O)[C@H]1N=[N+]=[N-] (stereo partly specified),inactive: 2.02%
23,O=P(Nc1nc2ccccc2s1)(c1ccccc1)c1ccccc1,inactive: 3.6%
